Test results: PubChem BioAssay AID1385 (PCMD, 2008)
This is a selection; strong and weak results do not stand in their true shares. Activity calls are given as the source filed them.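 The calls were made as follows: active = inhibition above 40% at the single screening dose; inactive = the rest.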

Protein sequences, listed by entry. Tags and fused reporters are not part of them.
UniProt Q06609, whole entry: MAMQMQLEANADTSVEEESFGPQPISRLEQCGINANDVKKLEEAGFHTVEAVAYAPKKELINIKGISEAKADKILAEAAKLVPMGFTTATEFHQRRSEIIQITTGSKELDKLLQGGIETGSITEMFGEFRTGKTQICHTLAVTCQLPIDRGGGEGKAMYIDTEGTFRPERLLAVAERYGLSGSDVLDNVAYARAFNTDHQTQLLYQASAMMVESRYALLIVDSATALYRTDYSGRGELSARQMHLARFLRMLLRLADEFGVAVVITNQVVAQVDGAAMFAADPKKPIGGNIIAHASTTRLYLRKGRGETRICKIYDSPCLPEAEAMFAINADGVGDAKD

biological target: DNA repair protein RAD51 homolog 1 (Homo sapiens) (UniProt Q06609); experiment: human RAD51 strand exchange inhibitors, primary screen, biochemical, fluorescence (AID 1385); conditions: hRad51 DNA strand exchange, fluorescence dequenching; at 10 µM; hits give high values;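 also: 0% = DMSO control wells and 100% = blanks with heterologous ssDNA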

| Compound | inhibition |
| --- | --- |
| c1ccc(CN2CCC(Nc3ccccc3)CC2)cc1 | inactive: -3.75% |
| N#Cc1ccc(C(=O)NCC2(N3CCCCC3)CCCCC2)cc1 | inactive: -9.47% |
| COc1ccc(C(=O)NCC2(N3CCOCC3)CCCCC2)cc1OC | inactive: -2.95% |
| CCCOc1ccc(C)cc1CN(CCCl)CCCl | inactive: -6.29% |
| COc1cc(OC)cc(C(=O)NCC2(N3CCOCC3)CCCCC2)c1 | inactive: 11.7% |
| CCC(CO)(C(=O)OC1CN2CCC1CC2)c1ccccc1 (stereo unspecified) | inactive: -0.68% |
| CC(C)(C)OC(=O)N1CCC(Nc2ccccc2)CC1 | inactive: -6.01% |
| CCOc1ncccc1C(=O)NCC1(N2CCOCC2)CCCCC1 | inactive: -1.01% |
| CN(C)c1ccc(C(=O)NCC2(N3CCCCC3)CCCCC2)cc1 | inactive: 0.66% |
| Fc1ccccc1NC1CCN(Cc2ccccc2)CC1 | inactive: -0.26% |
| Cc1ccc(OCC(C)C)c(CN(CCCl)CCCl)c1 | inactive: 13.7% |
| COc1ccc(NC2CCN(CCc3ccccc3)CC2)c(OC)c1 | inactive: -4.46% |
| CCOc1ccc(C)cc1CN(CCCl)CCCl | inactive: 2.01% |
| N#CC1(Nc2ccccc2)CCN(Cc2ccccc2)CC1 | inactive: 5.52% |
| O=C(OC1CN2CCC1CC2)C1c2ccccc2Oc2ccccc21 (stereo unspecified) | inactive: 5.97% |
| CCOC(=O)N1CCC(Nc2ccc(OC)cc2)CC1 | inactive: 1.14% |
| O=C(NCC1(N2CCOCC2)CCCCC1)c1cc2ccccc2o1 | inactive: -5.11% |
| COc1ccc(C(=O)NCC2(N3CCCCC3)CCCCC2)c(OC)c1OC | inactive: -16.6% |
| CN1CCC(Nc2cccc(F)c2)CC1 | inactive: -3.22% |
| CC(C)c1ccc(NC2CCN(C(=O)OC(C)(C)C)CC2)cc1 | inactive: -6.61% |
| COc1ccc(CN(CCCl)CCCl)cc1Cl | inactive: 8.88% |
| CN(C)c1cccc(C(=O)NCC2(N3CCCCC3)CCCCC2)c1 | inactive: 11.7% |
| COc1ccc(NC2CCN(C(=O)OC(C)(C)C)CC2)cc1 | inactive: -107% |
| CN1CCN(CCOC(=O)C(O)(c2ccccc2)c2ccccc2)CC1 | inactive: 9.31% |
| N#CC1(Nc2ccccc2)CCN(CCc2ccccc2)CC1 | inactive: 1.2% |
| O=C(NCC1(N2CCCCC2)CCCCC1)c1cccc([N+](=O)[O-])c1 | inactive: -3.92% |
